Results from PubChem BioAssay (EPA / NIEHS).
For some assays here: The hits were mostly taken out for another list; the other results follow. Results filed as inconclusive are left out. Only a part is listed here, and it is no random draw. Activity calls are given as the source filed them. How the source made its calls, unless noted: active means hit-call score of the fitted dose curve at least 0.9, where 1 is the maximum; inactive means score below 0.9.

Sequences of proteins named here, by UniProt entry; tags and fusion partners are left off. A change or cut given only in a name is not applied to a line headed by its entry.
UniProt Q96RI1: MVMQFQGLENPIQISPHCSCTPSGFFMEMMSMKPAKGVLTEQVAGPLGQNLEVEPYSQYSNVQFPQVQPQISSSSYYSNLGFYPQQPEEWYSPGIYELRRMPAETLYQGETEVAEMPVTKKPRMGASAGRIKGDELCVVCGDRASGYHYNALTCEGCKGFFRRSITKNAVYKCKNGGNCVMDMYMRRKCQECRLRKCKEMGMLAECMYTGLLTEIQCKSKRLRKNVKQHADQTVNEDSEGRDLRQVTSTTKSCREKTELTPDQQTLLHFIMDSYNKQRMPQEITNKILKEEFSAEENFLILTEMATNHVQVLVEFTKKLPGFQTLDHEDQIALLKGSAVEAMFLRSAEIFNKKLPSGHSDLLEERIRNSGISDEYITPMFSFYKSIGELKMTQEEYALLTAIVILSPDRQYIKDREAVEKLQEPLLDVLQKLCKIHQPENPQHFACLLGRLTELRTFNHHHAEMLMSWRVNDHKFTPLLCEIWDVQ
UniProt Q07869: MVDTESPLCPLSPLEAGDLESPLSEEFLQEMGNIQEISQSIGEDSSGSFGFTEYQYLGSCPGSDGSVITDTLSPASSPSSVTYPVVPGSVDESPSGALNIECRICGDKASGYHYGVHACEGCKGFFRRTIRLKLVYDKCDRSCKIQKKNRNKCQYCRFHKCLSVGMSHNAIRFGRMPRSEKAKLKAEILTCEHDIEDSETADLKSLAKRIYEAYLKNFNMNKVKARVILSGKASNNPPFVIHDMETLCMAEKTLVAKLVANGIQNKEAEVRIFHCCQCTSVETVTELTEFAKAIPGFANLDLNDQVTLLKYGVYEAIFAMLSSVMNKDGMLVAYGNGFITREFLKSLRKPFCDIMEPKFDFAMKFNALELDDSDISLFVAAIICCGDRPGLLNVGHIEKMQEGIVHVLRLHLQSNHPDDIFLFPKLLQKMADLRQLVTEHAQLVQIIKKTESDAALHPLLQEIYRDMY
UniProt P33261, whole entry, looked up: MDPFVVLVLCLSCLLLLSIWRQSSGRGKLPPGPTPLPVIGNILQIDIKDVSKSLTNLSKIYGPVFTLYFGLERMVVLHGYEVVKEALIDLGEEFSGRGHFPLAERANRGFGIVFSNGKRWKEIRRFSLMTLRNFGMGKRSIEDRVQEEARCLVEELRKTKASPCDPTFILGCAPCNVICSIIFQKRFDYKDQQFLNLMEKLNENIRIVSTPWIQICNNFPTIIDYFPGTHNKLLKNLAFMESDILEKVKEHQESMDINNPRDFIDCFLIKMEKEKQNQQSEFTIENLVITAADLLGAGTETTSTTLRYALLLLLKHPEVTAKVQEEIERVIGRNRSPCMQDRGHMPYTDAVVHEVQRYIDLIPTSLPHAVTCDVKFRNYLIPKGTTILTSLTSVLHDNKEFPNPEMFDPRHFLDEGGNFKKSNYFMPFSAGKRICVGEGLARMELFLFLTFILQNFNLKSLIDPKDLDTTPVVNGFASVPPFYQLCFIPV
UniProt P08588, whole entry, looked up: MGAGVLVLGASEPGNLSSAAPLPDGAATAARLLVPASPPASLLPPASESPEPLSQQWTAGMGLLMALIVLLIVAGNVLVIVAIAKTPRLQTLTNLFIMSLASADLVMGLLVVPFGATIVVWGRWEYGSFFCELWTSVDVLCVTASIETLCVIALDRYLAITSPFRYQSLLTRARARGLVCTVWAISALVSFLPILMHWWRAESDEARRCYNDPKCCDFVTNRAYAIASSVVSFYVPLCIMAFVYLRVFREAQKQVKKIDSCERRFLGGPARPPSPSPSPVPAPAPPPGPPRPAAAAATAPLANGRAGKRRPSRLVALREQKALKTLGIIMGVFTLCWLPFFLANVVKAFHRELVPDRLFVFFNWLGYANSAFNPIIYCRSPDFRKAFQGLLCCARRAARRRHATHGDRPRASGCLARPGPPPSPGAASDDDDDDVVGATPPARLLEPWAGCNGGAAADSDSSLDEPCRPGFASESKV
UniProt P03372, whole entry, looked up: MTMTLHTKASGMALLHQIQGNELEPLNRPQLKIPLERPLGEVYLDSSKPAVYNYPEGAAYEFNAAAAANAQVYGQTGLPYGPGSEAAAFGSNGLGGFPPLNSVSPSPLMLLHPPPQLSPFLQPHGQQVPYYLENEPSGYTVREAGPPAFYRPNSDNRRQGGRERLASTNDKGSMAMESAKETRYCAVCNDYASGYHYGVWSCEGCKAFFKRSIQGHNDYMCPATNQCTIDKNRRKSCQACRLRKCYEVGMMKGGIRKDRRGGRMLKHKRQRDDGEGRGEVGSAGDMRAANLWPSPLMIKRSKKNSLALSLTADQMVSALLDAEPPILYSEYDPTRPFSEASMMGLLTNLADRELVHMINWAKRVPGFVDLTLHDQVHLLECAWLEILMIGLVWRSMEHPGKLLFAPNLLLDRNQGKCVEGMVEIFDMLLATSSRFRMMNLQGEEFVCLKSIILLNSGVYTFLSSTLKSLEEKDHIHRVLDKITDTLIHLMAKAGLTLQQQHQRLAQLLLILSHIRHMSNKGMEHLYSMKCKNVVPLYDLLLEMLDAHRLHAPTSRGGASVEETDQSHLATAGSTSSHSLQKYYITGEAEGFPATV
UniProt Q92731, whole entry, looked up: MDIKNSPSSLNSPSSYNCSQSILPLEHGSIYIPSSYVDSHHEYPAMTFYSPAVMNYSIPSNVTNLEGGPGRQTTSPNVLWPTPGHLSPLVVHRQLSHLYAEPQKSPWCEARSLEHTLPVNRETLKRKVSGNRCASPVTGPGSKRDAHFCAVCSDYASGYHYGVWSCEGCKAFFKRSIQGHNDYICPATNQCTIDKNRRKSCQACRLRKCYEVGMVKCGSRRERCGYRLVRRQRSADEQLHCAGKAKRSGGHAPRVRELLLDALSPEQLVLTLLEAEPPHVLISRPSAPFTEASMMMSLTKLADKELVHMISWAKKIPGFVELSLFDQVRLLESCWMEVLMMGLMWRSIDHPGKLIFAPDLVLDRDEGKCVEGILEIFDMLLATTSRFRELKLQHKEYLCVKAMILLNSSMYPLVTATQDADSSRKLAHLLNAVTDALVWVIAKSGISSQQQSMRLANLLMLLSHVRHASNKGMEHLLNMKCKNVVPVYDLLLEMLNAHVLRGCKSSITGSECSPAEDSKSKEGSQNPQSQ

Experiments:
[1] = ATG_PPRE_CIS: Attagene CIS-FACTORIAL HepG2 Assay for human Peroxisome Proliferator-activated Response Element (PPRE) (AID 2282958); settings: HepG2 PPRE cis-element reporter, Attagene transcription factor profiling; actives raise or lower the signal
[2] = biological target: Bile acid receptor (Homo sapiens) (UniProt Q96RI1); assay: OT_FXR_FXRSRC1_0480: Odyssey Thera (OT) 8-hour HEK293T Protein-Complementation Assay for Farnesoid X receptor/SRC-1 Co-activator (AID 2283383; active means hit-call score of the fitted dose curve at least 0.9, where 1 is the maximum)
Outline: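 Human kidney HEK293T cells carried FXR/SRC-1 fragment-complementation constructs. Compounds were added and incubated 8 h. Reporter reassembly upon receptor–co-activator interaction was then quantified by fluorescence, with curves fitted in the positive direction relative to DMSO.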

[3] = ATG_RORE_CIS: Attagene CIS-FACTORIAL HepG2 Assay for human RAR-related Orphan Receptor Element (RORE) (AID 2282959); settings: HepG2 Attagene cis-factorial RORE reporter, mRNA; actives raise or lower the signal
[4] = biological target: Bile acid receptor (Homo sapiens) (UniProt Q96RI1); assay: OT_FXR_FXRSRC1_1440: Odyssey Thera (OT) 24-hour HEK293T Protein-Complementation Assay for Farnesoid X receptor/SRC-1 Co-activator (AID 2283384; active means hit-call score of the fitted dose curve at least 0.9, where 1 is the maximum)
Outline: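 Compounds are applied to human kidney HEK293T cells expressing bait and prey fused to reporter protein fragments; after 24 h, reconstituted reporter fluorescence is measured. Activity is fitted as signal gain over DMSO.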

[5] = biological target: human Peroxisome Proliferator-activated Receptor alpha (PPARa), PPARA (gene 5465) (UniProt Q07869); assay: ATG_PPARa_TRANS: Attagene TRANS-FACTORIAL HepG2 Assay for human Peroxisome Proliferator-activated Receptor alpha (PPARa) (AID 2283001; active means hit-call score of the fitted dose curve at least 0.9, where 1 is the maximum;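 further: potency for gain of reporter signal over DMSO so agonist or activator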)
Outline: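 Gain-of-signal endpoint: reporter mRNA induction relative to DMSO, detected by fluorescent RT-PCR and capillary electrophoresis. HepG2 cells transiently carried GAL4-UAS-driven reporter units plus NR-Gal4 fusion; exposure lasted 24 h.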

[6] = biological target: human Peroxisome Proliferator-activated Receptor alpha (PPARa), PPARA (gene 5465) (UniProt Q07869); assay: NVS_NR_hPPARa: NovaScreen (NVS) Nuclear Receptor Binding Assay for human Peroxisome Proliferator-activated Receptor alpha (PPARa) (AID 2283359; active means hit-call score of the fitted dose curve at least 0.9, where 1 is the maximum;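 further: activity means loss of TR-FRET signal versus DMSO baseline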)
Outline: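 Cell-free binding assay with extracted human protein, read by TR-FRET 1 h after chemical dosing. Loss of signal relative to DMSO baseline indicates binding. Primary screen used duplicate single concentration (25 uM); actives followed up in concentration series.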

[7] = biological target: Cytochrome P450 2C19 (Homo sapiens) (UniProt P33261); assay: NVS_ADME_hCYP2C19: NovaScreen (NVS) CYP450-related Enzyme Activity (ADME) Assay for human CYP2C19 (AID 2283113; active means hit-call score of the fitted dose curve at least 0.9, where 1 is the maximum;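 further: potency for inhibition seen as loss of fluorescent signal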)
Outline: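 Compounds first screened in duplicate at 10 uM, then confirmed in concentration series. Insect-cell-expressed human CYP2C19 turned over a fluorogenic substrate, and fluorescence was read after 1 h. Inhibition taken as signal loss relative to acetonitrile.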

[8] = biological target: human Adrenergic, Beta 1 Receptor (Adrb1), ADRB1 (gene 153) (UniProt P08588); assay: NVS_GPCR_hAdrb1: NovaScreen (NVS) G Protein-Coupled Receptor Assay for human Adrenergic, Beta 1 Receptor (Adrb1) (AID 2283258; active means hit-call score of the fitted dose curve at least 0.9, where 1 is the maximum)
Outline: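 Cell-free radioligand displacement on receptor from human neuroepithelioma cells; 2 h after dosing, filter-based scintillation counting. Primary screen in duplicate at 25 uM, actives retested in concentration series; loss of signal vs DMSO baseline.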

[9] = biological target: Beta-2 adrenergic receptor (Homo sapiens) (UniProt P07550); assay: NVS_GPCR_hAdrb2: NovaScreen (NVS) G Protein-Coupled Receptor Assay for human Adrenergic, Beta 2 Receptor (Adrb2) (AID 2283261; active means hit-call score of the fitted dose curve at least 0.9, where 1 is the maximum)
Outline: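 Filter-based radioligand binding using receptor prepared from CHO cells, 1 h incubation, scintillation counting. Primary screen in duplicate at 25 uM, actives retested in concentration series; loss of binding relative to DMSO.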

[10] = biological target: T1, Estrogen receptor (Homo sapiens) + Estrogen receptor beta (Homo sapiens) (UniProt P03372+Q92731); assay: OT_ER_ERaERb_0480: Odyssey Thera (OT) 8-hour HEK293T Protein-Complementation Assay for Estrogen Receptor-alpha/-beta Heterodimer (AID 2283352; active means hit-call score of the fitted dose curve at least 0.9, where 1 is the maximum)
Outline: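 Fluorescence increase from reconstituted reporter fragments, quantified by laser scanning cytometer, reflects ER-alpha/ER-beta heterodimer formation in human HEK293T cells. Exposure 8 h; positive-direction fitting against DMSO vehicle.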

[11] = biological target: T1, Estrogen receptor (Homo sapiens) + Estrogen receptor beta (Homo sapiens); assay: OT_ER_ERaERb_1440: Odyssey Thera (OT) 24-hour HEK293T Protein-Complementation Assay for Estrogen Receptor-alpha/-beta Homodimer (AID 2283356; active means hit-call score of the fitted dose curve at least 0.9, where 1 is the maximum;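 further: heteromer of ER alpha and ER beta binding domains; hits raise reporter fluorescence and both agonists and antagonists give an increase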)
Outline: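 Fragment complementation between ER alpha (310-547) and ER beta (263-489) ligand-binding domains in HEK293T cells; signal read 24 h post-dosing by laser scanning cytometer. Gain of fluorescence relative to DMSO fitted.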

[12] = TOX21_p53_BLA_p2_viability: Viability Assessment in the Tox21 HCT-116 p53 Agonism Beta-lactamase Assay, Phase 2 (AID 2283591; active means hit-call score of the fitted dose curve at least 0.9, where 1 is the maximum;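 further: compound exposure lasted 16 h at 37 °C; actives lower the ATP signal meaning cytotoxicity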)
Outline: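 HCT-116 p53-bla cells (4000/well) rested 5 h at 37C, then received compounds in DMSO (217-fold dilution) for 16 h at 37C, 5% CO2. After the CCF4 read, CellTiter-Glo was added; ATP luminescence was read after 30 min at room temperature.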

[13] = TOX21_p53_BLA_p5_viability: Viability Assessment in the Tox21 HCT-116 p53 Agonism Beta-lactamase Assay, Phase 5 (AID 2283600; active means hit-call score of the fitted dose curve at least 0.9, where 1 is the maximum)
Outline: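 After the 460/530 nm beta-lactamase measurement, the wells received an ATP-detection luciferase reagent; signal was read 30 min later at RT. Compound treatment lasted 16 h on cells pre-incubated 5 h post-seeding.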

[14] = TOX21_PR_BLA_Followup_Agonist_viability: Viability Assessment in the Tox21 HEK293 Progesterone Receptor (PR) Agonism Beta-lactamase Follow-Up Assay (AID 2283935; active means hit-call score of the fitted dose curve at least 0.9, where 1 is the maximum;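 further: signal loss means lower viability so actives are cytotoxic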)
Outline: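 HEK293T PR-UAS-bla, 3,000 cells/well, 2% CS-FBS; 6 hr pre-incubation; cpd in DMSO, 16 hr 37C; LiveBLAzer 2 hr RT, then CellTiter-Glo 30 min RT, luminescence. Decrease = lost viability.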

[15] = TOX21_PR_BLA_Followup_Antagonist_viability: Viability Assessment in the Tox21 HEK293 Progesterone Receptor (PR) Antagonism Beta-lactamase Follow-Up Assay (AID 2283936; active means hit-call score of the fitted dose curve at least 0.9, where 1 is the maximum;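 further: hits lower the luminescence signal meaning cytotoxicity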)
Outline: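 PR-UAS-bla HEK293T cells (3,000/well, 2% charcoal-stripped FBS) given compound plus R5020 agonist, 16 h at 37C. CellTiter-Glo added after bla read, 30 min at room temperature; luminescence loss indicates cytotoxicity.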

[16] = TOX21_TR_RXR_BLA_Antagonist_Followup_viability: Viability Assessment in the Tox21 Thyroid Hormone Receptor beta Retinoid X Receptor alpha (RXRa) Antagonism Beta-lactamase (BLA) Follow-Up Assay (AID 2283979; active means hit-call score of the fitted dose curve at least 0.9, where 1 is the maximum)
Outline: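 RXRa-UAS-bla HEK293T cells seeded 2,500/well in phenol red-free DMEM with 2% charcoal-stripped FBS, attached 5 h, then exposed to compounds at 11 concentrations in triplicate for 16 h at 37C/5% CO2. Viability read by CellTiter-Glo ATP luminescence; bidirectional fit versus DMSO.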

O=C1c2ccccc2C(=O)N1CCc1noc(-c2ccc(CN3CCCCCC3)s2)n1
outcome [1]: inactive | AC50 [2]: active: 9.78 µM

C[C@](N)(Cc1ccc(O)c(O)c1)C(=O)O
outcome [1]: inactive | outcome [3]: inactive

Cc1ccc(S(=O)(=O)NCl)cc1
outcome [1]: inactive | outcome [3]: inactive

Nc1nc2ccccc2[nH]1
outcome [1]: inactive | outcome [3]: inactive

C=CC(C)(O)CCC=C(C)C (stereo unspecified)
outcome [1]: inactive | outcome [3]: inactive

O=C(O)c1ccco1
outcome [1]: inactive | outcome [3]: inactive

CCCCCCCCCCCCCCO
AC50 [1]: active: 132 µM | outcome [3]: inactive

O=C(O)c1ccc2c(c1)C(=O)OC2=O
outcome [1]: inactive | outcome [3]: inactive

CC1=CCC(C(C)(C)O)CC1 (stereo unspecified)
outcome [3]: inactive

CC(O)(P(=O)(O)O)P(=O)(O)O
outcome [1]: inactive | outcome [3]: inactive

CC(C)CCCCCCc1ccc(OCCOCCO)cc1
outcome [1]: inactive | outcome [3]: inactive

Cc1occc1C(=O)Nc1ccc(C(=O)N2CCC(F)(F)/C(=C\C(=O)N3CCC(N4CCCCC4)CC3)c3ccccc32)cc1
AC50 [1]: active: 3.91 µM | outcome [3]: inactive | AC50 [2]: active: 25.8 µM | AC50 [4]: active: 30.1 µM

O=c1c(O)c(-c2ccc(O)cc2O)oc2cc(O)cc(O)c12
outcome [1]: inactive | outcome [3]: inactive | AC50 [2]: active: 28.3 µM | AC50 [4]: active: 72.3 µM

CC[C@]12CCCN3CCc4c(n(c5ccccc45)[C@@](O)(C(=O)OC)C1)[C@@H]32
outcome [1]: inactive | outcome [3]: inactive

CC(C)(C)c1cccc(C(C)(C)C)c1O
outcome [3]: inactive

O=S(=O)(O)CCCN1CCOCC1
outcome [3]: inactive

C[C@@H]1CCN(C(=O)[C@H](CCCN=C(N)N)NS(=O)(=O)c2cccc3c2NC[C@H](C)C3)[C@@H](C(=O)O)C1
outcome [1]: inactive | outcome [3]: inactive

CCCOCCO
outcome [1]: inactive | outcome [3]: inactive

C=CCNCC=C
outcome [1]: inactive | outcome [3]: inactive

COC(=O)C1=C(C)NC(C)=C(C(=O)OCC(C)C)C1c1ccccc1[N+](=O)[O-] (stereo unspecified)
outcome [1]: inactive | outcome [3]: inactive

CCOc1ccc(NC(N)=O)cc1
outcome [1]: inactive | outcome [3]: inactive

CCCCCCCCCOS(=O)(=O)O
outcome [3]: inactive

CCOC(=O)Cc1cccc2ccccc12
AC50 [1]: active: 75.4 µM | outcome [3]: inactive

CC(=O)CC(=O)Nc1ccccc1C
outcome [1]: inactive | outcome [3]: inactive

[Na+]
outcome [1]: inactive | outcome [3]: inactive | outcome [4]: inactive

Cc1oc(-c2ccccc2)nc1CCOc1ccc(C[C@H](Nc2ccccc2C(=O)c2ccccc2)C(=O)O)cc1
AC50 [5]: active: 0.369 µM | AC50 [6]: active: 0.0226 µM

OC(Cn1cncn1)(Cn1cncn1)c1ccc(F)cc1F
AC50 [7]: active: 1.52 µM

CCN(CC)C(=S)SSC(=S)N(CC)CC
AC50 [7]: active: 1.2 µM

CCc1c(C(=O)NN2CCCCC2)nn(-c2ccc(Cl)cc2Cl)c1-c1ccc(Br)cc1
AC50 [8]: active: 3.3 µM | AC50 [9]: active: 6.64 µM

CC(CO)OC(C)CO (stereo unspecified) (tested in a mixture with another compound)
outcome [10]: inactive | outcome [11]: inactive

[O-]/[N+](=N\O)c1ccccc1
outcome [10]: inactive | outcome [11]: inactive

N=C(N)c1ccc(OCCCCCOc2ccc(C(=N)N)cc2)cc1
outcome [2]: inactive | AC50 [4]: active: 52.2 µM

COCCOc1cc2cc(C(=O)NC3CCN(C(C)C)CC3)n(CC(=O)Nc3ccc(Cl)cn3)c2cn1
outcome [2]: inactive | outcome [4]: inactive

C[C@@H]1O[C@@H]1P(=O)(O)O
outcome [12]: inactive

CNC[C@@H]1CC[C@@H](N)[C@@H](O[C@H]2[C@H](O)[C@@H](O[C@H]3OC[C@](C)(O)[C@H](NC)[C@H]3O)[C@H](N)C[C@@H]2N)O1
outcome [12]: inactive

Nc1ccc(N)c(Cl)c1
outcome [13]: inactive

C[C@]12CC[C@@H]3c4ccc(O)cc4C[C@@H](CCCCCCCCCS(=O)CCCC(F)(F)C(F)(F)F)[C@H]3[C@@H]1CC[C@@H]2O (stereo partly specified)
outcome [14]: inactive | outcome [15]: inactive

C#C[C@]1(O)CC[C@H]2[C@@H]3CCC4=CC(=O)CC[C@@H]4[C@H]3C(=C)C[C@@]21CC
outcome [16]: inactive
